Measured values published in ChEMBL document CHEMBL1129020, “Synthesis and protein kinase C inhibitory activities of indane analogs of balanol” (Bioorg Med Chem Lett, 1996).

Key:
[1] = target: T1, Protein kinase C epsilon type (Homo sapiens, UniProt Q02156); assay: Inhibition of Protein kinase C epsilon
T1 sequence (Q02156 whole entry): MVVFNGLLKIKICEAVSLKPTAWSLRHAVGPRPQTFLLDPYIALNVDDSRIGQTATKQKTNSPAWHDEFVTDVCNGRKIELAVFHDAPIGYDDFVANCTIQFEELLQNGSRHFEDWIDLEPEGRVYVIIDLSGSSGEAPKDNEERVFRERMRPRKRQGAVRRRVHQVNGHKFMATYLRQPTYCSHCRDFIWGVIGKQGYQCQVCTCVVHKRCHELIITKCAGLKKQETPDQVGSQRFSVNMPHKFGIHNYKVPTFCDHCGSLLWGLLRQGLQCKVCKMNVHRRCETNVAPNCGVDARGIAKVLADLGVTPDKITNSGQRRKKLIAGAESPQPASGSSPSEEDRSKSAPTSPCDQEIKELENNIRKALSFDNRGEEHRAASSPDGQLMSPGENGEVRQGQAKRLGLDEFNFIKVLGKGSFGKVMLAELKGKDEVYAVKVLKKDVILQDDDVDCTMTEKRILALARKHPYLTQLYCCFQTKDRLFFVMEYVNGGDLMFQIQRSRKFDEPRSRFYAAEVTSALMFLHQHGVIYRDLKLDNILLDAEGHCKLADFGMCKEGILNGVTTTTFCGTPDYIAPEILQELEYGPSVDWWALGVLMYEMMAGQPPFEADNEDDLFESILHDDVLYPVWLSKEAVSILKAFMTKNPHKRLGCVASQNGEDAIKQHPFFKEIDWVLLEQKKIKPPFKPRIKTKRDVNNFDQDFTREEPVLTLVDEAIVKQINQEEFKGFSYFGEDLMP

[2] = target: cAMP-dependent protein kinase (PKA) (Homo sapiens, UniProt P22694+P17612+P22612); assay: Inhibition of cAMP-dependent protein kinase (PKA); format: protein assay

IC50 [1] | SMILES | IC50 [2]
10 nM | O=C(N[C@@H]1CNCCCC1OC(=O)c1cc(O)c(C(=O)c2c(O)cccc2C(=O)O)c(O)c1)c1ccc(O)cc1 (some centres undefined) | 
< 1000 nM | O=C(N[C@H]1CNCCCC1OC(=O)c1cc(O)c(C(=O)c2c(O)cccc2C(=O)O)c(O)c1)c1ccc(O)cc1 (some centres undefined) | 
 | O=C(N[C@@H]1CCCC1OC(=O)c1cc(O)c(C(=O)c2c(O)cccc2C(=O)O)c(O)c1)c1ccc(O)cc1 (some centres undefined) | 30 nM
340 nM | O=C(NC1CNCCCC1OC(=O)c1cc(O)c(C(=O)c2c(O)cccc2C(=O)O)c(O)c1)c1ccc(O)cc1 (racemic) | 
